Earlier results on 1 substance are cited in patent publication US20240131064A1, “TREATMENT OF CANCER PATIENTS WITH TUMOR INFILTRATING LYMPHOCYTE THERAPIES IN COMBINATION WITH BRAF INHIBITORS AND/OR MEK INHIBITORS” (Iovance Biotherapeutics, Inc., priority 2020, published 2024).

The conditions of the data set: rhIL-2 lot 10200121 (Cellgenix), 1 mg vial, per COA.

In the case of “rhIL-2: purified, lyophilized recombinant human interleukin-2 (Cellgenix lot 10200121)”, the specific activity is 25×10^6 IU/mg.
